Test system: SARS-CoV-2 (USA-WA1/2020, lineage A)
Assay: K18-hACE2 mouse model of SARS-CoV-2, H&E histopathology of lung and brain
Conditions: individual mice, 8-day regimen, most severely affected vessel

Row | SMILES | Perivascular infiltrates in CNS score
1 | CS(=O)(=O)NC(CCC(N)=O)C(=O)NC(Cc1ccccc1)C(=O)NC(CCCNC(=N)N)C(=O)c1nc2ccccc2s1 (centres unmarked) [Compound N-0385, Ms-QFR-kbt] | 3 ((3) complete cuff two to three cells thick)
2 | CS(=O)(=O)NC(CCC(N)=O)C(=O)NC(Cc1ccccc1)C(=O)NC(CCCNC(=N)N)C(O)c1nc2ccccc2s1 (centres unmarked) [N-0385(OH), Ms-QFR-Kbt(OH)] | 3 ((3) complete cuff two to three cells thick)
